Source: patent publication US7101890B2, “Benzazepine derivatives, drugs containing these and use of the same for producing drugs” (priority 1996, dated 2006)

Sequences of proteins named here, by UniProt entry; tags and fusion partners are left off. Residues count along the entry.
UniProt P06276, 29-602 limits assumed: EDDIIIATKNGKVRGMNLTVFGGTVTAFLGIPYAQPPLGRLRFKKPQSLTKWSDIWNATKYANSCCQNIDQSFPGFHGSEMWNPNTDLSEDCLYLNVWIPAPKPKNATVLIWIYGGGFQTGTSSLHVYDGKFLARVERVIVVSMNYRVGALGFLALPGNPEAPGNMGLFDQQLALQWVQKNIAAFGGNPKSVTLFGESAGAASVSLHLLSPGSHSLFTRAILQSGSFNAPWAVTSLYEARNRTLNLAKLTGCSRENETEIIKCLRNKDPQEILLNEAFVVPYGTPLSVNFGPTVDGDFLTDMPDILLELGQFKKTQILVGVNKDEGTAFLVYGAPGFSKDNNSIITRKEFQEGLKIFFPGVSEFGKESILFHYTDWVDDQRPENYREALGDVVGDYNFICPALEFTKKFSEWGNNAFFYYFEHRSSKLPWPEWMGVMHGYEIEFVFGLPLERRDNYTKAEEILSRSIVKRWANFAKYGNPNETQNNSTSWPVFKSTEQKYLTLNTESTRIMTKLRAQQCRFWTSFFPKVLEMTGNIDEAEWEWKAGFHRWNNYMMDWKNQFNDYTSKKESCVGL

Target: acetylcholine esterase (Homo sapiens, UniProt P06276)
Assay: Inhibition of acetylcholine esterase, modified method of Ellmann, human serum
Format: biochemical
Conditions: read-out: IC50 in μMol; ACHE inhibition; human serum from a pool of 10 test subjects; 37° C., pH 7.8; compounds of general formula (I)

## COc1ccc2c3c1O[C@H]1C[C@H](OC(=O)[C@H](Cc4ccccc4)NC(=O)OC(C)(C)C)C=C[C@@]31CCN(C)C2
  IC50: 100 µM
